# Antibody variant affinities, Ab-14 light chain, assay B

From the AlphaSeq antibody data of Li et al. 2023 (doi:10.1038/s41467-023-39022-2), copy in the FLAb collection.

Target peptide (SARS-CoV-2 spike, HR2 region): PDVDLGDISGINAS

Parent: Ab-14, a human scFv built as VH, a 15-residue (Gly4Ser)3 linker, VL. Only the CDRs of the light chain vary.
VH: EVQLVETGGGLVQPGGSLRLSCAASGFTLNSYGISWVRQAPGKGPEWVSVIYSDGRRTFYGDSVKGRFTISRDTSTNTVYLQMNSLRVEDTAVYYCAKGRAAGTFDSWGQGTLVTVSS
VL: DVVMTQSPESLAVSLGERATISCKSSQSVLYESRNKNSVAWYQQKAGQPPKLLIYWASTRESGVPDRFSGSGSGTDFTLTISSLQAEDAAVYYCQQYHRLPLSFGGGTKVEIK

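The parent was found by panning a naive human phage display library on the peptide. These sequences belong to a second round, designed from the earlier measurements on random variants of the parent. Group labels follow the data file (Ctrl: baseline library sampled from a position-specific scoring matrix, with some repeated check sequences; GP: Gaussian process model; HC: hill climbing; Gen: genetic algorithm; Gibbs: Gibbs sampling; a sequence that several methods proposed may carry one label only). Affinity was read by AlphaSeq, a pooled yeast mating assay with surface-displayed partners. The frequency of each diploid, read from paired DNA barcodes, reflects how well the two displayed proteins bind. Scores were corrected for input abundance and mapped to Kd with protein pairs of known affinity run in the same pool. Mating was done six times.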

Substitutions are numbered in sequence along the VL above, starting at 1 (not Kabat). Variants here have at most six changes. Kd is apparent (estimated from mating counts) and averaged on the log scale over replicates with a signal. Smaller is tighter. An entry "nd" has no value in the source: the pair was not observed among the diploids in any replicate. This suggests poor binding but is not conclusive. Empty control strains, which show no peptide, gave a signal in 4% of pairings with all light chain designs; the median was 430 nM and 95% of these signals were weaker than 38 nM. No background was subtracted. In the paper, a design with two or fewer of six values counts as a poor binder. Of ten entries with the parent sequence, four were seen in most replicates (averages 2.2 nM to 240 nM), three in one and three in none, so single entries are noisy. Values of this round are not directly comparable with the first-round values of the same sequences.

The variant S25V+S26P+S58H [Ctrl] gave 4.8 nM (6 of 6 replicates). The variant S25F+S33E+R99G [Ctrl] showed 130 nM (5 of 6 replicates). The variant S25L+S26Q+V29E+W56S+T59Q+E61L [GP_Gen] showed 950 pM (6 of 6 replicates). The variant S25T+Y31W+H98A+R99N [Ctrl] showed 43 nM (1 of 6 replicates). The variant S25L+S26E+W56N+E61L [GP_Gen] showed 3.5 nM (6 of 6 replicates).

For K36F+W56S+E61H [Ctrl], the assay gave 2.5 nM (6 of 6 replicates). The variant S25F+L30A+N35T+W56N [GP_HC] showed 880 pM (6 of 6 replicates). With V29E+W56D+S103W [Ctrl] the result was 1.3 nM (6 of 6 replicates). The variant S25F+S26Q+V29E+W56N+T59Q [GP_Gen] gave 570 pM (6 of 6 replicates). For R34N+W56Y+A57G [Ctrl], the assay gave 21 nM (6 of 6 replicates).

The variant S62M [Ctrl] showed 22 nM (6 of 6 replicates). The variant S25I+V29Y+S33D+N37W+W56N+E61L [GP_Gibbs] showed 1.4 nM (6 of 6 replicates). The variant N35H [Ctrl] gave 310 nM (2 of 6 replicates). The variant V29I+L30F+E32D+N37Y+W56Y+Y97V [Ctrl] gave nd (0 of 6 replicates). For Q27L+Y31K+S62V [Ctrl], the assay gave 110 nM (5 of 6 replicates).

The variant V29Q+R34G+W56H+S62D [GP_HC] showed 1.3 nM (6 of 6 replicates). For S25L+S26P+S33G+W56S [GP_Gen], the assay gave 2.7 nM (6 of 6 replicates). The variant S26L+L30P+W56H+S62D [GP_HC] showed 60 nM (5 of 6 replicates). For S28P+W56A+S103R [Ctrl], the assay gave nd (0 of 6 replicates). The variant S25L+K36F+W56H [GP_Gen] showed 830 pM (6 of 6 replicates).

The variant S25L+Q27D+W56N [GP_HC] showed nd (0 of 6 replicates). The variant S25L+S38A+W56D+Q96M+R99W [GP_HC] gave 5.8 nM (6 of 6 replicates). For S25I+Q27F+Y31D+R34S+Q96R [Ctrl], the assay gave 130 nM (3 of 6 replicates). The variant S25M+V29Q+S33W+W56N+S103T [GP_Gibbs] gave 700 pM (6 of 6 replicates). For S25L+V29Q+W56N+T59Y [GP_Gen], the assay gave 360 pM (6 of 6 replicates).

The variant V29Q+S33D+N35V+W56G [GP_HC] gave 1.3 nM (6 of 6 replicates). The variant S25L+V29H+W56N+S62W [GP_Gen] showed 1.2 nM (6 of 6 replicates). For R34D+E61T+Y97D+R99Q [Ctrl], the assay gave nd (0 of 6 replicates). The variant W56T+S58Q+E61N [Ctrl] gave 170 nM (6 of 6 replicates). For K24I+S25A+S26V+W56G+S103I [GP_HC], the assay gave 17 nM (6 of 6 replicates).

With S25L+S26P+S28L+W56N [GP_Gen] the result was 470 pM (6 of 6 replicates). The variant R34N+W56S+S58I+S62I [Ctrl] showed 7.2 nM (6 of 6 replicates). With W56G+R60H+S62C [Ctrl] the result was 29 nM (6 of 6 replicates). For S25L+V29H+W56E+S62Q [GP_Gibbs], the assay gave 1.2 nM (6 of 6 replicates). With S25M+R34V+W56D [GP_HC] the result was 2.3 nM (6 of 6 replicates).

The variant S25L+S26P+S28G+W56G+T59Y [GP_HC] gave 570 pM (6 of 6 replicates). The variant S25L+S26A+V29D+K36F+S38N+W56A [GP_Gibbs] gave 390 pM (6 of 6 replicates). The variant S25L+N35Q+W56N+T59Q+S62Q [GP_Gen] showed 310 pM (6 of 6 replicates). The variant S25Y+Q27F+V29D+L30G+Y31N+W56E [GP_Gibbs] showed 1.1 nM (6 of 6 replicates). The variant Q27N+V29Y+W56E+S103M [GP_HC] gave 86 nM (1 of 6 replicates).

With V29H+S62D [Ctrl] the result was 31 nM (6 of 6 replicates). The variant S25Q+V29W+L30D+Y31G+W56H+T59K [GP_Gibbs] showed 7.9 nM (6 of 6 replicates). For S25M+Q27L+Y31F+W56N [GP_HC], the assay gave 2.6 nM (6 of 6 replicates).

Again, the first 4 entries without any signal:

changes,group,apparent Kd,seen in
V29I+L30F+E32D+N37Y+W56Y+Y97V,Ctrl,nd,0 of 6
S28P+W56A+S103R,Ctrl,nd,0 of 6
S25L+Q27D+W56N,GP_HC,nd,0 of 6
R34D+E61T+Y97D+R99Q,Ctrl,nd,0 of 6